Measurements taken from patent US20220401561A1, “PROTEIN-MACROMOLECULE CONJUGATES AND METHODS OF USE THEREOF” (Beijing Xuanyi PharmaSciences Co., Ltd., priority 2019, published 2022).

Experiment: Visible toxicity observed in the B16F10 mouse model
Assay type: in vivo
Settings: C57BL/6 mice bearing B16F10 tumors
Method: 1×10^5 B16F10 cells were implanted subcutaneously for each 7-9 week old syngeneic C57BL/6 mouse at mid-dorsal region. Tumors were allowed to grow to palpable size, i.e., 70-120 cu mm before randomization and assigning groups (n=8) as designed. The mice were administered test compounds i.e., rIL-2, rIL-2-polymer conjugates or vehicle at different dose concentrations and dose regimes as indicated in Tables 5-9. The body weights and tumor volumes were measured every two or three days. The end point for this study was the time to reach median tumor volume of 2000 cu mm for a given group.
Tumor growth inhibition following the administration of rIL-2 and rIL-2-polymer conjugates at different administration schemes are provided in FIGS. 5-9.

For “IL-2: Recombinant IL-2 corresponding to the amino acid sequence of FIG. 1, expressed in E. coli”, which Visible toxicity is on record?
Its Visible toxicity is “lethargy and body chill symptoms”.
